AlphaSeq binding of Ab-91 heavy chain variants to a spike HR2 peptide

The target is the same throughout: PDVDLGDISGINAS, from the HR2 region of SARS-CoV-2 spike.

Ab-91 is the parent antibody, in scFv form: VL, then the linker GGGGSGGGGSGGGGS, then VH. The light chain is unchanged in all variants.
VL: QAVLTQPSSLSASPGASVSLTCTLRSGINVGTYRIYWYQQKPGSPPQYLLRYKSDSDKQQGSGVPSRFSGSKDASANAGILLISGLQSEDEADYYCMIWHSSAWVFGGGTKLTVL
VH: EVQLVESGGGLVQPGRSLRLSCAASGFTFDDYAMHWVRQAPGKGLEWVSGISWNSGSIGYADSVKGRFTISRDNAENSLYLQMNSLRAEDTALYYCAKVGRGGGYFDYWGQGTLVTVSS

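Library AAYL51 holds single substitutions and randomly drawn double and triple substitutions in the CDRs. AlphaSeq pools MATa yeast showing the antibodies with MATalpha yeast showing the peptide. The frequency of each diploid, read from paired DNA barcodes, reflects how well the two displayed proteins bind. The ratio of observed to expected reads was calibrated, replicate by replicate, on BCL2-family standards whose Kd was known from biolayer interferometry. Mating was done three times.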

Substitutions are numbered in sequence along the VH above, starting at 1 (not Kabat).
All variants listed here change N54 of the VH, counted from its first residue.
Each Kd is an estimate from the mating assay, the geometric mean of the replicates in which the pair was seen; lower is stronger.
"no signal" means that the variant was in the library but no mating with the target was seen in any replicate; the authors take this as a sign of poor binding, and no number exists.
Nonspecific signal, from three strains lacking the peptide, appeared in 21% of pairings of library AAYL51, centred on 34 µM (5% of these signals below 1.8 µM); values are not corrected for it.

Variant D31P/S52Q/N54P gave 73 µM (2 of 3 replicates).
Variant N54L/S63Q gave 76 µM (3 of 3 replicates).
Variant N54Q/S63P/G100N gave 12 µM (2 of 3 replicates).
Variant G26R/F29P/N54V gave 380 µM (2 of 3 replicates).
Variant I51K/N54D/G102P gave no signal (0 of 3 replicates).
Variant D31R/Y32Q/N54Y gave no signal (0 of 3 replicates).
Variant Y32V/N54E/K65T gave 1.2 µM (1 of 3 replicates).
Variant G50W/N54T gave no signal (0 of 3 replicates).
Variant N54Q/I58P gave 60 µM (3 of 3 replicates).
Variant N54E gave no signal (0 of 3 replicates).
Variant N54K/Y60N/V64M gave no signal (0 of 3 replicates).
Variant S52M/N54Y/G102E gave no signal (0 of 3 replicates).
Variant Y32M/N54M/V64H gave 410 µM (1 of 3 replicates).
Variant F27A/D31P/N54W gave 12 µM (1 of 3 replicates).
Variant S52R/N54A/G104W gave 16 µM (1 of 3 replicates).
Variant D31M/N54I/G102M gave 5.8 µM (1 of 3 replicates).
Variant N54K/G103C/G104N gave no signal (0 of 3 replicates).
Variant G26V/H35P/N54W gave no signal (0 of 3 replicates).
Variant N54R/G56I/G102H gave no signal (0 of 3 replicates).
Variant H35Y/N54T/D107L gave no signal (0 of 3 replicates).
Variant M34V/N54Q/G102T gave 41 µM (1 of 3 replicates).
Variant D30Q/N54S/V99E gave 19 µM (2 of 3 replicates).
Variant F29E/N54Q/S63D gave 300 µM (2 of 3 replicates).
Variant N54F/V64A/Y108K gave 1.0 mM (1 of 3 replicates).
Variant Y32C/H35K/N54E gave no signal (0 of 3 replicates).
Variant N54D/I58E/D107I gave no signal (0 of 3 replicates).
Variant G50E/N54H/G104D gave 4.0 µM (1 of 3 replicates).
Variant N54M/K65I gave 16 µM (1 of 3 replicates).
Variant N54T/G104V gave no signal (0 of 3 replicates).
Variant F27K/F29T/N54K gave no signal (0 of 3 replicates).
Variant N54W/K65W/R101V gave no signal (0 of 3 replicates).
Variant T28V/G50L/N54R gave 93 µM (2 of 3 replicates).
Variant N54Y/G104E/Y105K gave no signal (0 of 3 replicates).
Variant F29K/N54I/V99T gave no signal (0 of 3 replicates).
Variant M34V/N54M/V99S gave no signal (0 of 3 replicates).
Variant N54L/I58N/Y105F gave 21 µM (2 of 3 replicates).
Variant N54F/D62H/S63W gave no signal (0 of 3 replicates).
Variant N54D/A61E/Y108K gave no signal (0 of 3 replicates).
Variant F27P/N54T gave no signal (0 of 3 replicates).
Variant D31T/N54R/D62H gave no signal (0 of 3 replicates).
Variant G26N/N54A gave no signal (0 of 3 replicates).
Variant F27L/N54W/S55I gave no signal (0 of 3 replicates).

Top 2 of the variants detected in all replicates, tightest first:

changes,Kd,detected
N54Q/I58P,60 µM,3/3
N54L/S63Q,76 µM,3/3

From the AlphaSeq antibody data of Engelhart et al. 2022 (doi:10.1038/s41597-022-01779-4), copy in the FLAb collection.